Measured values as given in patent US10676430B2, “Non-alpha substituted peroxy acids and uses thereof” (Stepan Company, priority 2016, dated 2020).

Assay: Peracid stability by standard titration method
Type: physicochemical
Details: for Peracid loss/day: 1.00% H2SO4, between day 6 and day 13; for Peracid at day 6 / Peracid at day 13: reaction mixture 20.00% organic acid, 7.50% H2O2, 1.00% H2SO4, DI water
Excerpt: […] The H2O2 used is commercially available from Arkema under the tradename Perxoal 50EG and includes a small amount of stabilizer. The reaction proceeded until equilibrium was reached, in accordance with the reaction scheme recited above. The starting carboxylic acids were acetic acid, 3-hydroxy propanoic acid, 3-chloro-propanoic acid, 2-hydroxy-acetic acid (glycolic acid), 2-hydroxy-propanoic acid (lactic acid) and 2-oxo-propanoic acid. The 3-hydroxy propanoic acid and 3-chloro-propanoic acid generated non alpha-substituted peracids that are examples of the present technology. The other starting carboxylic acids generated peracids that are not within Formula 1 or Formula 2 and are comparative peracid examples.
Each of the resulting peracids were evaluated for odor. In addition, the resulting peracids were evaluated for stability using a standard titration method known to those skilled in the art.

| Compound | Peracid loss/day | Peracid at day 6 | Peracid at day 13 |
| --- | --- | --- | --- |
| CC(=O)C(=O)OO [2-OPPA] | 12.644% | 0.290% | 0.030% |
| CC(O)C(=O)OO (stereo not drawn) [2-HPPA, perlactic acid] | 1.381% | 1.690% | 1.530% |
